The record followed here is patent publication US12274731B1, “Polybasic antimalarial agents and methods of use thereof” (priority 2018, dated 2025).

The data set relates to human erythrocytes. Put plainly: Hemolysis in erythrocyte culture. The settings on record: at IC50. The format is cell-based.

With poly-L-ornithine, the hemolysis entry is on record as “without hemolysis”.
